## Yeast mating assay B: variants of the scFv Ab-14

Binding partner: SARS-CoV-2 spike HR2 peptide, sequence PDVDLGDISGINAS.

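The starting antibody came from a phage panning campaign against this peptide. This is the validation round: designs drawn from the data on random variants, tested in the same kind of assay. Group labels follow the data file (Ctrl: baseline library sampled from a position-specific scoring matrix, with some repeated check sequences; En: ensemble of fine-tuned language models; GP: Gaussian process model; HC: hill climbing; Gen: genetic algorithm; Gibbs: Gibbs sampling; a sequence that several methods proposed may carry one label only). In AlphaSeq, yeast of one mating type display the scFv and yeast of the other type display the target. The frequency of each diploid, read from paired DNA barcodes, reflects how well the two displayed proteins bind. Each replicate has its own calibration line, from reference interactions of the BCL2 family. Mating was done six times.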

Ab-14 is the parent antibody, in scFv form: VH, then a 15-residue (Gly4Ser)3 linker, then VL. The heavy chain is unchanged in all variants.
VH: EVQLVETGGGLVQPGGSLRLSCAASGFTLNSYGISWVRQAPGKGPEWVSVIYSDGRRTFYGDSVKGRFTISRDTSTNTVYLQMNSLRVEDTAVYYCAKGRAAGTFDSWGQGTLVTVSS
VL: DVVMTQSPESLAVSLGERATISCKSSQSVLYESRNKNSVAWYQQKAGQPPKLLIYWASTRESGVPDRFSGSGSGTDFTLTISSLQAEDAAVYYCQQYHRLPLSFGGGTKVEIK

Each variant is given by its three light chain CDRs, as the data file delimits them; those of the parent are KSSQSVLYESRNKNSVA, WASTRES, QQYHRLPLS.
Scale: log10 of Kd in nM, estimated from mating counts; low values are strong binders.
The mean shown is taken over the replicates in which the pair was detected.
"no signal" means that the variant was in the library but no mating with the target was seen in any replicate; the authors take this as a sign of poor binding, and no number exists.

CDR-L1	CDR-L2	CDR-L3	group	mean, log10 nM	seen in
KLSQSHGGESRNKNSVA	HASLREV	QQYHRLPLS	GP_Gibbs	0.52	6 of 6
MISQMYNMGQFAINSVA	QASIRND	QQYDRLPLA	En_Gen	1.26	6 of 6
KFGQSVLTGSYVRNSVA	QQSTREN	QQYDRLPLS	En_HC	1.31	6 of 6
KSSQSVLFQSRNKNSVA	DASTREQ	QQYHRLPLS	GP_HC	0.16	6 of 6
KLSQSVLKESRNKNSIA	WASTRES	QQYHRLPLQ	Ctrl	0.75	6 of 6
KLRQSTLYESRNPNSVA	SASTRES	QQYHRLPLS	GP_HC	-0.05	6 of 6
KLQQSQLYGSRNKNSVA	DASTRLV	QAYHRLPLS	GP_Gibbs	0.66	6 of 6
KLSQSELYESRNKNSVA	HASTRES	QDYHRLPLS	GP_Gen	0.37	6 of 6
KSSQSVLYESRNKNSVA	DAHTRES	QQYHRLPLS	Ctrl	0.49	6 of 6
KFQQSELYEKRNQNSVA	SASYRLS	QQYHRLPLS	GP_Gibbs	0.06	6 of 6
KLPQSDLYESRNKNSVA	HASQRES	QQYHRLPLS	GP_Gen	0.66	6 of 6
KQSQSVLYTERNKNSVA	EASTRES	QQYHRLPLS	Ctrl	-0.10	6 of 6
KLSQSWLYESRMKNSVA	NASQREQ	QQYHRLPLS	GP_Gen	0.07	6 of 6
KIGHGLTTESYNRNSVA	QTETRVS	QHYHRLPLS	En_HC	2.30	6 of 6
KLTQVSGHLQVEKNNVA	EMETREN	QQYDRLPLS	En_Gen	0.71	6 of 6
MMSSLMGYESRHINNVA	QTTTREE	QQYDRLPLM	En_Gen	0.52	6 of 6
KLSQSDLYESRNKNSVA	AASTRES	QQYHRLPLS	GP_Gen	-0.24	6 of 6
KSSQSDLMESRNKNSVA	MGSTRES	QQYHRLPLS	Ctrl	0.62	6 of 6
KLLQSVLYESRQKNSVA	HASTRED	QQYHRLPLS	GP_HC	0.94	6 of 6
KSSQSVLYQSRFKNSVA	WASTREQ	QQYHRLPLS	Ctrl	1.29	1 of 6
AISQSVEYESRDKNSVA	NASTREQ	QQYHRLPLS	GP_Gibbs	0.64	6 of 6
VLQQSVCYESRNKNSVA	NASKREE	QQYHRLPLS	GP_Gibbs	0.14	6 of 6
KMSQSNLYESRNKNSVA	NASQRES	QQYHRLPLS	GP_Gen	-0.14	6 of 6
KVSQGVLYEERNMNSVA	WASTHES	QQYHRLPLT	Ctrl	1.99	4 of 6
MISNVMNSLTHTGNNVA	DLQERSD	QQYFRLPLS	En_Gen	0.67	6 of 6
KSSQSVLVESNNKNSVA	WASTRED	QQYHRLELS	Ctrl	1.96	4 of 6
KLSQSVDYESRNKNSVA	EASTREV	QQYHRLPLS	GP_Gen	0.88	6 of 6
MISDLTMYGSRNKYSVA	DLSTRGS	QQYHRLPLS	En_HC	0.85	6 of 6
KQQFSVLQESRQCNSVA	EASTREE	QQYHRLPLS	GP_Gibbs	1.23	1 of 6
KWQQSQDYESRNFNSVA	NASTRCT	QQYHRLPLS	GP_Gibbs	0.07	6 of 6
RYQMDDNSGEGMRNNVA	DGAEVRM	QQYARLPLW	En_Gibbs	2.41	4 of 6
KSSQGVLYDSRNKNSVA	WASTREM	QQYHRLPLS	Ctrl	1.49	6 of 6
KLSQSMLYESRNDNSVA	QASTRED	QQYHRLPLT	GP_Gibbs	0.16	6 of 6
NVGGEDPGQWYMWDSIA	GSSLRAE	QQYWRLPLM	En_Gibbs	1.11	6 of 6
KWMQMVMQESRNKNSVA	NASTRMQ	QQYHRLPLS	GP_Gibbs	0.58	6 of 6
KLDQSVDEKSRNKNSVA	EASTRES	QQYHRLPLS	GP_Gibbs	-0.10	6 of 6
MISQIYNVGQFAINSVA	QASTRNA	QQYDRLPLM	En_Gen	1.35	6 of 6
MVSQIMLWGLHAKNSIA	EAQMRLN	QQYDRLPLI	En_Gen	1.60	3 of 6
KSSYSGLYESRMKNSVA	EASTRES	QQYHRLPLS	GP_HC	0.01	6 of 6
KSSQSVLYESFNKNSVA	GASTRES	QQYHRLPLS	Ctrl	0.48	6 of 6
KIGMQVTYQSTVNNAIA	QMETREE	QQYHRLPLS	En_HC	0.99	6 of 6
MISQLYNMGTFAINSVA	QASLRCN	QQYDRLPLM	En_Gen	no signal	0 of 6
TISQVMNTLTRHGNNVA	DLQEREN	QQYFRLPLS	En_Gen	0.54	6 of 6
TISQSTYWESRNKNSVA	QTTTREE	QDYDRLPLS	En_HC	2.31	6 of 6
KLSQSVWYESRMKNSVA	NASTRES	QQYHRLPLS	GP_Gen	0.17	6 of 6
KSSQSMTYESRNKNSVA	QGSTRES	QQYHRLPLS	Ctrl	-0.17	6 of 6
NVSIEEPGNWRMWDSVA	HSSLRAE	QQYWRLPLM	En_Gibbs	0.54	6 of 6
KVQQSWPYESRNKNSVA	NASTRES	QQYHRLPLS	GP_Gen	0.46	6 of 6
KSSQSVLPESRNKNSVA	DASTRMS	QQYHRLPLS	GP_HC	-0.13	6 of 6
KVSQSVLYESRMKNSVA	KASTREW	QQYQRLPLS	Ctrl	1.11	6 of 6
KVSQSELGEERNKMSVA	SASTREK	QQYHRLPLS	GP_Gibbs	0.32	6 of 6
KLSQSELYESRNKNSVA	NASQREE	QQYHRLPLS	GP_Gen	0.05	6 of 6
KISQMIRVGSTHGNSIA	EEQTRAK	QQYHRLPLS	En_Gen	1.01	6 of 6
KSSMSEWYESRNKNSVA	TASTRES	QQYHRIPLS	Ctrl	1.44	5 of 6
QLYEMNYELSGKTHSVA	DNSTRGD	QQYFRLPLD	En_Gen	1.69	6 of 6

The last 8 entries again:

CDR-L1	CDR-L2	CDR-L3	group	mean, log10 nM	seen in
KVQQSWPYESRNKNSVA	NASTRES	QQYHRLPLS	GP_Gen	0.46	6 of 6
KSSQSVLPESRNKNSVA	DASTRMS	QQYHRLPLS	GP_HC	-0.13	6 of 6
KVSQSVLYESRMKNSVA	KASTREW	QQYQRLPLS	Ctrl	1.11	6 of 6
KVSQSELGEERNKMSVA	SASTREK	QQYHRLPLS	GP_Gibbs	0.32	6 of 6
KLSQSELYESRNKNSVA	NASQREE	QQYHRLPLS	GP_Gen	0.05	6 of 6
KISQMIRVGSTHGNSIA	EEQTRAK	QQYHRLPLS	En_Gen	1.01	6 of 6
KSSMSEWYESRNKNSVA	TASTRES	QQYHRIPLS	Ctrl	1.44	5 of 6
QLYEMNYELSGKTHSVA	DNSTRGD	QQYFRLPLD	En_Gen	1.69	6 of 6

The authors averaged sequences with at least three values out of six and counted those with two or fewer as poor binders.
The parent sequence was in this pool as ten entries: three were never detected, three once, and four in most replicates, with averages from 0.34 to 2.37.
The range of this assay differs from that of the first round, and the authors advise against merging the two.
Three control strains display no target. For all light chain designs, 4% of the pairings with them gave a signal, with a median of 2.64 and one signal in twenty below 1.59, so weak values seen in few replicates may be background.

Reference: Li et al. 2023, doi:10.1038/s41467-023-39022-2. File: FLAb, binding data.